Our source for the Kd values is US20180298101A1 (published 2018).

For test [1], the target named is human full-length CIS in trimeric complex with elongin B and elongin C (UniProt Q9NSE2 1-258; Q15370 1-118; Q15369 17-112). Kind of test: ITC. A general note: Isothermal titration calorimetry measures the heat released or taken up as one component is titrated into another.
Test [2] addresses human CIS lacking both the N-terminal region (residues 1-66) and the PEST motif (ΔNT/ΔPEST) in trimeric … (UniProt Q9NSE2 67-258; Q15370 1-118; Q15369 17-112). As to the kind of experiment: ITC.

A word on the Kd: it is the equilibrium constant for the complex coming apart. A high value points to a looser complex. As for LLPLDKDYYVVREPGQ (phosphotyrosine at Tyr980 and Tyr981 (JAK3 numbering)) [JAK3 activation loop phosphopeptide, doubly phosphorylated (JAK3-Y980, Y981)], the Kd was 1100 nM in test [1] and 700 nM in test [2].
